The record followed here is patent US7439251B2, “Methods and compositions for treatment of central and peripheral nervous system disorders and novel compounds useful therefor” (Israel Institute for Biological Research, priority 2002, dated 2008).

The subject of this data set is rat pheochromocytoma cells transfected with the M1 mAChR. In words: MTT cell viability against β-amyloid and H2O2 in M1 mAChR transfected cells. Particulars: β-A25-35 10 & 20 μM.

Turning to “(S)-Ethyl-4-(3-1H-indol-3-yl-propionyl)-8-methyl-1-thia-4,8-diaza-spiro[4.5]decan-3-one”, the β-A25-35-induced cytotoxicity entry is “more effective than carbachol and AF267B”.
